Test system: AP2M1 MU
Type: binding, human

QVVSDIDYVPLKSATA V3Q (QVQSDIDYVPLKSATA)
PSSM value of the substitution (DMS by phage display): 0.000395

VSDIDYVPLKSATA(averaged) Y6I (VSDIDIVPLKSATA)
PSSM value of the substitution, averaged over the two overlapping peptides: 0

VSDIDYVPLKSATA(averaged) D3W (VSWIDYVPLKSATA)
PSSM value of the substitution, averaged over the two overlapping peptides: 0.2116

VSDIDYVPLKSATA(averaged) L9V (VSDIDYVPVKSATA)
PSSM value of the substitution, averaged over the two overlapping peptides: 0.03261

VSDIDYVPLKSATAIT Y6I (VSDIDIVPLKSATAIT)
PSSM value of the substitution (DMS by phage display): 0

VSDIDYVPLKSATA(averaged) S11E (VSDIDYVPLKEATA)
PSSM value of the substitution, averaged over the two overlapping peptides: 0.0007686

VSDIDYVPLKSATA(averaged) A14F (VSDIDYVPLKSATF)
PSSM value of the substitution, averaged over the two overlapping peptides: 0.01452

QVVSDIDYVPLKSATA P10M (QVVSDIDYVMLKSATA)
PSSM value of the substitution (DMS by phage display): 0.01637

QVVSDIDYVPLKSATA A16H (QVVSDIDYVPLKSATH)
PSSM value of the substitution (DMS by phage display): 0.0006219

QVVSDIDYVPLKSATA S4H (QVVHDIDYVPLKSATA)
PSSM value of the substitution (DMS by phage display): 0.0002135

VSDIDYVPLKSATAIT T13A (VSDIDYVPLKSAAAIT)
PSSM value of the substitution (DMS by phage display): 0.001387

VSDIDYVPLKSATA(averaged) I4F (VSDFDYVPLKSATA)
PSSM value of the substitution, averaged over the two overlapping peptides: 0.0003902

VSDIDYVPLKSATAIT I4G (VSDGDYVPLKSATAIT)
PSSM value of the substitution (DMS by phage display): 0

VSDIDYVPLKSATAIT A12V (VSDIDYVPLKSVTAIT)
PSSM value of the substitution (DMS by phage display): 0.003612

QVVSDIDYVPLKSATA D7V (QVVSDIVYVPLKSATA)
PSSM value of the substitution (DMS by phage display): 0.0005325

VSDIDYVPLKSATAIT D3I (VSIIDYVPLKSATAIT)
PSSM value of the substitution (DMS by phage display): 0

VSDIDYVPLKSATAIT I4D (VSDDDYVPLKSATAIT)
PSSM value of the substitution (DMS by phage display): 8.359e-5

QVVSDIDYVPLKSATA Y8I (QVVSDIDIVPLKSATA)
PSSM value of the substitution (DMS by phage display): 0

QVVSDIDYVPLKSATA D5E (QVVSEIDYVPLKSATA)
PSSM value of the substitution (DMS by phage display): 0.02816

VSDIDYVPLKSATA(averaged) D3T (VSTIDYVPLKSATA)
PSSM value of the substitution, averaged over the two overlapping peptides: 0.00358

VSDIDYVPLKSATAIT T13S (VSDIDYVPLKSASAIT)
PSSM value of the substitution (DMS by phage display): 0.021

VSDIDYVPLKSATAIT T13I (VSDIDYVPLKSAIAIT)
PSSM value of the substitution (DMS by phage display): 0.002859

VSDIDYVPLKSATA(averaged) S2H (VHDIDYVPLKSATA)
PSSM value of the substitution, averaged over the two overlapping peptides: 0.0001068

QVVSDIDYVPLKSATA D7Q (QVVSDIQYVPLKSATA)
PSSM value of the substitution (DMS by phage display): 0

VSDIDYVPLKSATA(averaged) L9P (VSDIDYVPPKSATA)
PSSM value of the substitution, averaged over the two overlapping peptides: 0

QVVSDIDYVPLKSATA Y8D (QVVSDIDDVPLKSATA)
PSSM value of the substitution (DMS by phage display): 0

VSDIDYVPLKSATAIT K10H (VSDIDYVPLHSATAIT)
PSSM value of the substitution (DMS by phage display): 0

VSDIDYVPLKSATA(averaged) A14R (VSDIDYVPLKSATR)
PSSM value of the substitution, averaged over the two overlapping peptides: 0.1311

VSDIDYVPLKSATAIT V1G (GSDIDYVPLKSATAIT)
PSSM value of the substitution (DMS by phage display): 0.0001046

VSDIDYVPLKSATAIT A14G (VSDIDYVPLKSATGIT)
PSSM value of the substitution (DMS by phage display): 0.04718

QVVSDIDYVPLKSATA K12F (QVVSDIDYVPLFSATA)
PSSM value of the substitution (DMS by phage display): 0.001392

QVVSDIDYVPLKSATA D5M (QVVSMIDYVPLKSATA)
PSSM value of the substitution (DMS by phage display): 0

QVVSDIDYVPLKSATA T15F (QVVSDIDYVPLKSAFA)
PSSM value of the substitution (DMS by phage display): 0.001169

VSDIDYVPLKSATAIT V7S (VSDIDYSPLKSATAIT)
PSSM value of the substitution (DMS by phage display): 0

VSDIDYVPLKSATAIT V7N (VSDIDYNPLKSATAIT)
PSSM value of the substitution (DMS by phage display): 0

VSDIDYVPLKSATA(averaged) K10E (VSDIDYVPLESATA)
PSSM value of the substitution, averaged over the two overlapping peptides: 0.2799

VSDIDYVPLKSATA(averaged) A14S (VSDIDYVPLKSATS)
PSSM value of the substitution, averaged over the two overlapping peptides: 0.005066

VSDIDYVPLKSATAIT I15G (VSDIDYVPLKSATAGT)
PSSM value of the substitution (DMS by phage display): 0.02833

VSDIDYVPLKSATA(averaged) D5S (VSDISYVPLKSATA)
PSSM value of the substitution, averaged over the two overlapping peptides: 0.0009385

VSDIDYVPLKSATAIT Y6K (VSDIDKVPLKSATAIT)
PSSM value of the substitution (DMS by phage display): 0

VSDIDYVPLKSATAIT S2V (VVDIDYVPLKSATAIT)
PSSM value of the substitution (DMS by phage display): 0

VSDIDYVPLKSATA(averaged) S11K (VSDIDYVPLKKATA)
PSSM value of the substitution, averaged over the two overlapping peptides: 0.01931

QVVSDIDYVPLKSATA D5F (QVVSFIDYVPLKSATA)
PSSM value of the substitution (DMS by phage display): 0.03727

QVVSDIDYVPLKSATA V3R (QVRSDIDYVPLKSATA)
PSSM value of the substitution (DMS by phage display): 0

VSDIDYVPLKSATA(averaged) L9T (VSDIDYVPTKSATA)
PSSM value of the substitution, averaged over the two overlapping peptides: 0

VSDIDYVPLKSATA(averaged) D3K (VSKIDYVPLKSATA)
PSSM value of the substitution, averaged over the two overlapping peptides: 0.02954

QVVSDIDYVPLKSATA V9K (QVVSDIDYKPLKSATA)
PSSM value of the substitution (DMS by phage display): 0.01324

VSDIDYVPLKSATAIT K10M (VSDIDYVPLMSATAIT)
PSSM value of the substitution (DMS by phage display): 0.1033

QVVSDIDYVPLKSATA T15H (QVVSDIDYVPLKSAHA)
PSSM value of the substitution (DMS by phage display): 0.5033

QVVSDIDYVPLKSATA P10K (QVVSDIDYVKLKSATA)
PSSM value of the substitution (DMS by phage display): 0

VSDIDYVPLKSATA(averaged) P8N (VSDIDYVNLKSATA)
PSSM value of the substitution, averaged over the two overlapping peptides: 0

QVVSDIDYVPLKSATA Y8Q (QVVSDIDQVPLKSATA)
PSSM value of the substitution (DMS by phage display): 0

VSDIDYVPLKSATAIT T13M (VSDIDYVPLKSAMAIT)
PSSM value of the substitution (DMS by phage display): 0.0765

VSDIDYVPLKSATA(averaged) I4S (VSDSDYVPLKSATA)
PSSM value of the substitution, averaged over the two overlapping peptides: 0.0001181

QVVSDIDYVPLKSATA S4N (QVVNDIDYVPLKSATA)
PSSM value of the substitution (DMS by phage display): 0.0706

VSDIDYVPLKSATA(averaged) K10Y (VSDIDYVPLYSATA)
PSSM value of the substitution, averaged over the two overlapping peptides: 0.01461

VSDIDYVPLKSATA(averaged) A12V (VSDIDYVPLKSVTA)
PSSM value of the substitution, averaged over the two overlapping peptides: 0.001806

VSDIDYVPLKSATAIT V1D (DSDIDYVPLKSATAIT)
PSSM value of the substitution (DMS by phage display): 8.606e-5

VSDIDYVPLKSATAIT V7P (VSDIDYPPLKSATAIT)
PSSM value of the substitution (DMS by phage display): 0

VSDIDYVPLKSATA(averaged) S11R (VSDIDYVPLKRATA)
PSSM value of the substitution, averaged over the two overlapping peptides: 0

VSDIDYVPLKSATAIT A14A
PSSM value of the substitution (DMS by phage display): 0.00476

QVVSDIDYVPLKSATA S4Q (QVVQDIDYVPLKSATA)
PSSM value of the substitution (DMS by phage display): 0

VSDIDYVPLKSATA(averaged) D5T (VSDITYVPLKSATA)
PSSM value of the substitution, averaged over the two overlapping peptides: 0.1629

QVVSDIDYVPLKSATA V2V
PSSM value of the substitution (DMS by phage display): 0.02883

VSDIDYVPLKSATAIT V1F (FSDIDYVPLKSATAIT)
PSSM value of the substitution (DMS by phage display): 9.11e-5

QVVSDIDYVPLKSATA K12K
PSSM value of the substitution (DMS by phage display): 0.002281

VSDIDYVPLKSATAIT D3F (VSFIDYVPLKSATAIT)
PSSM value of the substitution (DMS by phage display): 0.105

QVVSDIDYVPLKSATA S13E (QVVSDIDYVPLKEATA)
PSSM value of the substitution (DMS by phage display): 0.0004072

VSDIDYVPLKSATA(averaged) V1H (HSDIDYVPLKSATA)
PSSM value of the substitution, averaged over the two overlapping peptides: 0.4257

VSDIDYVPLKSATA(averaged) A14G (VSDIDYVPLKSATG)
PSSM value of the substitution, averaged over the two overlapping peptides: 0.02521

VSDIDYVPLKSATA(averaged) P8M (VSDIDYVMLKSATA)
PSSM value of the substitution, averaged over the two overlapping peptides: 0.008183

QVVSDIDYVPLKSATA V2Q (QQVSDIDYVPLKSATA)
PSSM value of the substitution (DMS by phage display): 0

QVVSDIDYVPLKSATA P10G (QVVSDIDYVGLKSATA)
PSSM value of the substitution (DMS by phage display): 0

VSDIDYVPLKSATAIT Y6R (VSDIDRVPLKSATAIT)
PSSM value of the substitution (DMS by phage display): 0

QVVSDIDYVPLKSATA D5G (QVVSGIDYVPLKSATA)
PSSM value of the substitution (DMS by phage display): 0.007768

VSDIDYVPLKSATA(averaged) P8R (VSDIDYVRLKSATA)
PSSM value of the substitution, averaged over the two overlapping peptides: 0

VSDIDYVPLKSATA(averaged) V1W (WSDIDYVPLKSATA)
PSSM value of the substitution, averaged over the two overlapping peptides: 0.07578

VSDIDYVPLKSATA(averaged) A12F (VSDIDYVPLKSFTA)
PSSM value of the substitution, averaged over the two overlapping peptides: 0.01804

VSDIDYVPLKSATAIT T13F (VSDIDYVPLKSAFAIT)
PSSM value of the substitution (DMS by phage display): 0.2232

VSDIDYVPLKSATA(averaged) S2T (VTDIDYVPLKSATA)
PSSM value of the substitution, averaged over the two overlapping peptides: 0.002842

VSDIDYVPLKSATA(averaged) V1D (DSDIDYVPLKSATA)
PSSM value of the substitution, averaged over the two overlapping peptides: 0.000188

VSDIDYVPLKSATAIT Y6A (VSDIDAVPLKSATAIT)
PSSM value of the substitution (DMS by phage display): 0

QVVSDIDYVPLKSATA K12T (QVVSDIDYVPLTSATA)
PSSM value of the substitution (DMS by phage display): 0.03207

VSDIDYVPLKSATA(averaged) T13A (VSDIDYVPLKSAAA)
PSSM value of the substitution, averaged over the two overlapping peptides: 0.002125

QVVSDIDYVPLKSATA V2K (QKVSDIDYVPLKSATA)
PSSM value of the substitution (DMS by phage display): 0

QVVSDIDYVPLKSATA K12H (QVVSDIDYVPLHSATA)
PSSM value of the substitution (DMS by phage display): 0.09002

VSDIDYVPLKSATAIT S11K (VSDIDYVPLKKATAIT)
PSSM value of the substitution (DMS by phage display): 0.03863

QVVSDIDYVPLKSATA L11P (QVVSDIDYVPPKSATA)
PSSM value of the substitution (DMS by phage display): 0

VSDIDYVPLKSATAIT I4A (VSDADYVPLKSATAIT)
PSSM value of the substitution (DMS by phage display): 0

QVVSDIDYVPLKSATA T15T
PSSM value of the substitution (DMS by phage display): 0.02158

VSDIDYVPLKSATA(averaged) V1N (NSDIDYVPLKSATA)
PSSM value of the substitution, averaged over the two overlapping peptides: 0.0002899

From PMC12102759 (Protein Science : A Publication of the Protein Society, 2025)
